Test results published in patent US20050214316A1 (priority 2003, published 2005).

Columns and labels:
[1] = test system: commercial broilers (trials 1 and 2), SPF broilers (trial 3); conditions: in vivo
[2] = test system: commercial broilers (trials 1 and 2), SPF broilers (trial 3); experiment: Immunosuppression trials 1-3: relative proventriculus weight; conditions: Trial 2, commercial broilers, Day 14 (7 dpi), mean ± standard deviation, four birds

SMILES: O=P1(N(CCCl)CCCl)NCCCO1 (centres unmarked) [CP, Cyclophosphamide monohydrate]
- Proventriculus score (severity of proventricular lesions) [1]: 1.25^a
- Relative proventriculus weight [2]: 0.685 ± .023^a % body weight

Marks after values point to notes of the source that are not given here.
